Data taken from PMC7950324, “A general method for quantifying ligand binding to unmodified receptors using Gaussia luciferase” (The Journal of Biological Chemistry, 2021).
Like-named read-outs stand apart in the source and are kept apart here.

Amino acid sequences for entries named in this document (tags omitted). A change or cut given only in a name is not applied to a line headed by its entry.
UniProt P35348: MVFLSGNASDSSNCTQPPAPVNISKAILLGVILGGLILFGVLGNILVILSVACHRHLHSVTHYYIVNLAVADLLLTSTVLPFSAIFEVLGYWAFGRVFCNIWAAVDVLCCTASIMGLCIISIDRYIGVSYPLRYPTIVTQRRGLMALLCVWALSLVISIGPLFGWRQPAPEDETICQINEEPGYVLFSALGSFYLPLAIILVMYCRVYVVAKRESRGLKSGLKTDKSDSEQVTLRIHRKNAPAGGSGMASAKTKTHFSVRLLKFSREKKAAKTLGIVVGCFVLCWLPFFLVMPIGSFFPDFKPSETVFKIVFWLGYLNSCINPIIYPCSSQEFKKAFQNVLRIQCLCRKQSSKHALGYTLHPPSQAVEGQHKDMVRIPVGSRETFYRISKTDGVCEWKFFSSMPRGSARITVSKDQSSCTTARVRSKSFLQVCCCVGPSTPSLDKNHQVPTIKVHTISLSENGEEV

Legend:
ɑ1AAR [1] = biological target: T1, ɑ1AAR (Homo sapiens, UniProt P35348); assay: α1AAR ligand screening, plasma membrane–ligand BRET (α1AAR with GLuc–PM); settings: for inhibition at 10 µM: 20 min
GLuc–ɑ1AAR [2] = biological target: T2, GLuc–ɑ1AAR (Homo sapiens, UniProt P35348)
ɑ1AAR [3] = biological target: T1, ɑ1AAR; settings: labeled ligand 150 nM for 15 min, washout, prazosin to prevent rebinding, one phase decay
ɑ1AAR [4] = biological target: T1, ɑ1AAR; assay: PM–ligand BRET equilibrium binding, α1AAR with GLuc–PM; set-up: expressed in transfected cells; host or cells: HEK 293T; settings: one site binding fit
GLuc–ɑ1AAR [5] = biological target: T2, GLuc–ɑ1AAR; assay: Receptor–ligand BRET equilibrium binding, GLuc–α1AAR in HEK 293T cells; set-up: Gaussia luciferase signal peptide (N); […]; expressed in transfected cells; host or cells: HEK 293T; settings: one site binding fit
[6] = read-out: plasma membrane-ligand BRET decrease (%) Replicate1
[7] = read-out: plasma membrane-ligand BRET decrease (%) Replicate2

Q: How did the inhibition at 10 µM (ɑ1AAR [1]; [6]) turn out when `Cc1cc(C(=O)Nc2nc3ccc(F)cc3s2)no1` [BCC0024436] was run?
A: -3.66%

Q: What about the inhibition at 10 µM (ɑ1AAR [1]; [7]) of the same compound?
A: -6.56%

Q: Which results are given for `Cc1c(C2C(C#N)=C(N)N(c3cccc([N+](=O)[O-])c3)C3=C2C(=O)CCC3)cnn1C` (centres unmarked) [BCC0038765]?
A: inhibition at 10 µM (ɑ1AAR [1]; [6]): -1.67%; inhibition at 10 µM (ɑ1AAR [1]; [7]): -3.87%

Q: `COc1cc2nc(N3CCN(C(=O)c4ccco4)CC3)nc(N)c2cc1OC` [prazosin, reference compound] was tested. Which “plasma membrane-ligand BRET decrease (%) Replicate1” value (ɑ1AAR [1]) did it give?
A: -100,72%

Q: What about the “plasma membrane-ligand BRET decrease (%) Replicate2” value (ɑ1AAR [1]) of the same compound?
A: -101,49%

Q: With BODIPY FL–prazosin as the compound, how does the koff (GLuc–ɑ1AAR [2]; labeled ligand 150 nM for 15 min, washout, prazosin to prevent rebinding, one phase decay) read?
A: 0.00184 s⁻¹

Q: And the kon (GLuc–ɑ1AAR [2]; labeled ligand 150 nM, association)?
A: 3.86 × 10^4 s^−1M^−1

Q: And the koff (ɑ1AAR [3])?
A: 0.00133 s⁻¹

Q: And the Kd (ɑ1AAR [4])?
A: 46.6 nM

Q: What about the Kd (GLuc–ɑ1AAR [5]) of the same compound?
A: 61.1 nM
